Assay results as given in ChEMBL document CHEMBL1153405, “Complementary three-dimensional quantitative structure-activity relationship modeling of binding affinity and functional potency: a study on alpha4beta2 nicotinic ligands” (J Med Chem, 2009).

By UniProt entry, the sequences of proteins in these tests, tags left out. Where a name states a change or a piece, a line headed by the entry shows the natural chain unless it says otherwise.
UniProt P17787: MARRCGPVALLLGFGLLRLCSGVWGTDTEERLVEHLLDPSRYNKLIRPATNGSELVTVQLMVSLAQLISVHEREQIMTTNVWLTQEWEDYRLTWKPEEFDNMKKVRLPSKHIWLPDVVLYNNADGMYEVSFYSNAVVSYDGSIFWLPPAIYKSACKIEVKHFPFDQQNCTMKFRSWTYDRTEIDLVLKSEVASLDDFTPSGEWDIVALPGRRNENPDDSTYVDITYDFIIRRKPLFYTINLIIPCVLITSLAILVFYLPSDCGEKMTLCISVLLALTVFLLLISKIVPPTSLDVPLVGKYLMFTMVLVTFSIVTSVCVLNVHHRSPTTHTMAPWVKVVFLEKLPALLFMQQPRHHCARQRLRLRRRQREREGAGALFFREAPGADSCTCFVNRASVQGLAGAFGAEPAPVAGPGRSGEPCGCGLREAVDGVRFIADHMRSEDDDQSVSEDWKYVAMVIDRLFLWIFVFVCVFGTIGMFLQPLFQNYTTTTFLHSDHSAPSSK
UniProt P43681: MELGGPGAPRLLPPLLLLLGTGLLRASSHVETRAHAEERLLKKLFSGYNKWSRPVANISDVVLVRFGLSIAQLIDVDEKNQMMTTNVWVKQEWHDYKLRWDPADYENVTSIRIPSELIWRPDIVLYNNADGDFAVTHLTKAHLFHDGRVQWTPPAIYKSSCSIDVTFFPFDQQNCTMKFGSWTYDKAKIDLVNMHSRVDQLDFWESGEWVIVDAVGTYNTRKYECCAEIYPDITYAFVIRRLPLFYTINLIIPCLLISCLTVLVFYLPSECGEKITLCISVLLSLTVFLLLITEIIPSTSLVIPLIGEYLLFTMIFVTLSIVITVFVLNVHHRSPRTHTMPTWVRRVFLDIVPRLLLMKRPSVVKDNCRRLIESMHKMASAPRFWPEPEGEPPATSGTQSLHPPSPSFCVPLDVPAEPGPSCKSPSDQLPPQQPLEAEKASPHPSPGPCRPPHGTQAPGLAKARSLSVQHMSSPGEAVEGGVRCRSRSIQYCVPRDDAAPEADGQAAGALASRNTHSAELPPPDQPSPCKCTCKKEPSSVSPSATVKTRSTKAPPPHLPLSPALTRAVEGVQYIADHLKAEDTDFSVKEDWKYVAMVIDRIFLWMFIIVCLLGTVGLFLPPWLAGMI

Biological target: Neuronal acetylcholine receptor; alpha4/beta2 (Homo sapiens, UniProt P17787+P43681)
Experiment: Intrinsic activity at human alpha4beta2 nAChR expressed in HEK293 cells assessed as intracellular calcium level by FLIPR assay relative to (-)nicotine
Type: cell-based
Summary of the method: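 HEK-293 cells stably expressing human α4β2 (subunits cloned from IMR32) were grown in DMEM with 10% FBS at 37 °C and 5% CO2. They were plated on poly-D-lysine for 24 h, then loaded with 2 µM fluo-4/AM for 1.5 h at room temperature. Cells were washed into NMDG Ringer (10 mM CaCl2, pH 7.4) and read by FLIPR at 100 pM–100 µM. Background-subtracted responses were normalized to 100 µM (-)-nicotine, giving pEC50 and maximal efficacy; n = 4-8.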

Compound: c1cncc(OC[C@@H]2CCN2)c1
- Efficacy: 183%
